# logP (octanol/water) values, as collected for the OPERA models

logP is the log10 of the octanol-water partition coefficient; higher is more lipophilic.
Cells with "n/a" have no entry in this list.
"via" names the databases from which the curators took the value.

log Kow	structure (SMILES)	name	via
-0.056	OCCS	2-Mercaptoethanol	eChemPortal
0.744	CCC(=O)Nc1cccc(Nc2cc(S(=O)(=O)[O-])c(N)c3c2C(=O)c2ccccc2C3=O)c1.[Na+]	n/a	eChemPortal
2.47	C1=CCCC1	Cyclopentene	eChemPortal
0.411	CC(=O)[C-](/N=N/c1cc(S(N)(=O)=O)ccc1[O-])C(=O)Nc1ccccc1.CC(=O)[C-](/N=N/c1cc(S(N)(=O)=O)ccc1[O-])C(=O)Nc1ccccc1.[Co+3].[Na+]	n/a	eChemPortal
-2.5	CC1=NN(c2ccc(S(=O)(=O)[O-])cc2)C(=O)C1/N=N/c1ccccc1C(=O)[O-].[Na+].[Na+] (stereo partly drawn)	n/a	eChemPortal
4	CCC(C)C	2-Methylbutane	eChemPortal
0.97	O=C(OCn1[nH]cc2c(=O)ncnc1-2)c1cccc(Cn2ccnc2)c1	n/a	OCHEM
-2.3	Nc1cc(S(=O)(=O)[O-])cc2cc(S(=O)(=O)O)cc(O)c12.[Na+]	n/a	eChemPortal
1.6	COc1ccccc1N1CCN(CCNC(=O)c2ccc[nH]2)CC1	n/a	OCHEM
-1.34	CC(=O)N1CCC[C@H]1C(=N)O	1-Acetylpyrrolidine-2-carboximidic acid	OCHEM
1.35	CC(C)COC(=O)[C@@H](C)O	Propanoic acid, 2-hydroxy-, 2-methylpropyl ester, (2R)-	eChemPortal
3.93	OCc1cc(Cl)cc(Cl)c1Cl	Benzene, 1,2,5-trichloro-3-methoxy-	OCHEM
2.3	O=P1(CC(c2ccccc2)P2(=O)Oc3ccccc3-c3ccccc32)Oc2ccccc2-c2ccccc21 (stereo not drawn)	n/a	eChemPortal
2.4	FC(F)(F)C(F)(F)Cl	Chloropentafluoroethane	PubChem
6.1	COc1ccc(C(=O)CC(=O)c2ccc(C(C)(C)C)cc2)cc1	1-(4-tert-Butylphenyl)-3-(4-methoxyphenyl)propane-1,3-dione	eChemPortal
-2.051	N[C@@H](Cc1c[nH]c2ccc(O)cc12)C(=O)O	L-5-Hydroxytryptophan	PubChem
3.4	COc1ccccc1N1CCN(CCNC(=N)C2CCCCC2)CC1	n/a	OCHEM
2.3	CCOc1ccccc1OCCN[C@H](C)Cc1ccc(OC)c(S(N)(=O)=O)c1	Tamsulosin	PubChem
-1.4	CC(=O)CC(N)=O	3-Oxobutanamide	eChemPortal
2.98	CCCOC(=O)n1c(-c2cscn2)nc2ccccc21	Propyl 2-(1,3-thiazol-4-yl)benzimidazole-1-carboxylate	OCHEM
0.94	FC(F)(F)c1nc2ccncc2[nH]1	2-(Trifluoromethyl)-3H-imidazo[4,5-c]pyridine	OCHEM
4.21	c1ccc(-c2cc3ccccc3[nH]2)cc1	1H-Indole, 2-phenyl-	OCHEM
7.08	Clc1ccc(-c2c(Cl)c(Cl)cc(Cl)c2Cl)c(Cl)c1Cl	2,2',3,3',4,5',6'-Heptachlorobiphenyl	OCHEM
1.9	Cc1cccc(N(CCO)CCO)c1	Ethanol, 2,2'-[(3-methylphenyl)imino]bis-	eChemPortal
2.42	Oc1cc(Cl)c(Br)cc1Cl	4-Bromo-2,5-dichlorophenol	OCHEM
4.8	CC1=NN(c2cccc(Cl)c2)C(=O)C1/N=N/c1ccc(S([NH-])(=O)=O)cc1C(=O)[O-].CC1=NN(c2cccc(Cl)c2)C(=O)C1/N=N/c1ccc(S([NH-])(=O)=O)cc1C(=O)[O-].[Cr+3].[H+] (stereo partly drawn)	n/a	eChemPortal
-0.22	Nc1cccnn1	pyridazin-3-amine	OCHEM
4.46	O=C1c2ccccc2C(=O)c2cc(Cl)ccc21	2-Chloroanthraquinone	OCHEM

The 2 lowest values of log Kow among the entries above:

{"smiles": "CC1=NN(c2ccc(S(=O)(=O)[O-])cc2)C(=O)C1/N=N/c1ccccc1C(=O)[O-].[Na+].[Na+]", "stereo": "stereo partly drawn", "log Kow": "-2.5", "via": "eChemPortal"}
{"smiles": "Nc1cc(S(=O)(=O)[O-])cc2cc(S(=O)(=O)O)cc(O)c12.[Na+]", "log Kow": "-2.3", "via": "eChemPortal"}

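The numbers are reported measurements, compiled and curated for the OPERA QSAR suite. A listed value is a point estimate from one report or more. How each value was measured is not recorded, so precision varies. A value may pool stereoisomers or salt forms, and the file does not say which form was measured. Some entries may be limits or estimates that an upstream database listed as plain numbers.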

Data: OPERA 2.9 data sets, kmansouri/OPERA on GitHub.